{
  "source": "patent US20260234568A1",
  "about": "“TUMOR STORAGE AND CELL CULTURE COMPOSITIONS” (Iovance Biotherapeutics, Inc., priority 2021, published 2026)",
  "origin": "cited, not measured here",
  "conditions": "rhIL-2 lot 10200121 (Cellgenix), 1 mg vial, per COA; cited from earlier work",
  "data": [
    {"substance": "rhIL-2: purified, lyophilized recombinant human interleukin-2; lot 10200121 (Cellgenix)", "values": [
      {"measurement": "specific activity", "result": "25×10^6 IU/mg"}
    ]}
  ]
}
